The source of these data is PubChem BioAssay AID1209 (Sanford-Burnham Center for Chemical Genomics, 2008).

Amino acid sequences for entries named in this document (tags omitted).
UniProt P34949, whole entry: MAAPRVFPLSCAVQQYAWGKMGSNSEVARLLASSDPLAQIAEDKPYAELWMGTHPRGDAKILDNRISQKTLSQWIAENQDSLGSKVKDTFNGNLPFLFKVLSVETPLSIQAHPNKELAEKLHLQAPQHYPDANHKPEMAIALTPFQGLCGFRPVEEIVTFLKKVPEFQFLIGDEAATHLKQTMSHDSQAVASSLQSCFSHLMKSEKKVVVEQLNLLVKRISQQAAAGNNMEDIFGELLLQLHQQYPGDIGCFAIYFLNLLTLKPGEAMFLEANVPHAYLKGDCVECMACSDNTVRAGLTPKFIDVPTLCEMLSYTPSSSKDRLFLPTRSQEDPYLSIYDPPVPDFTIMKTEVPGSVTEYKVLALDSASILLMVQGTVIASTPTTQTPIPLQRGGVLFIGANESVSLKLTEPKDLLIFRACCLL

Only a part is listed here, and it is no random draw. Some results for these compounds are left out of this collection, so the calls shown say nothing about other tests. Activity calls are given as the source filed them. Rule as the data show it: active = inhibition above about 50%; inactive = the rest.

In this assay the target is Mannose-6-phosphate isomerase (Homo sapiens) (UniProt P34949). Put plainly: inhibitors of human PMI, primary screen, biochemical, fluorescence intensity, coupled assay (AID 1209).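 Also: plate controls were DMSO vehicle for no effect and wells lacking substrate for full effect.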 The note with it: purified PMI enzyme, at 20 µM, stronger effect = higher value.
For the compound `O=C(OC1CN2CCC1CC2)C(CO)(c1ccccc1)c1ccccc1` (centres undefined), the inhibition is inactive: 0%. As for `CN(C)c1cccc(C(=O)NCC2(N(C)C)CCCCC2)c1`, the figure is inactive: 9.6%; as for `COc1cccc(C(=O)NCC2(N3CCCCC3)CCCCC2)c1`, inactive: 10.2%. Take `Cc1ccccc1C(=O)NCC1(N2CCCCC2)CCCCC1`: the inhibition was inactive: 3%. As for `CN(C)C1CCCC1OC(=O)C(O)(c1ccccc1)c1ccccc1` (centres undefined), the inhibition was inactive: -3%. As for `CCN1CCCC(OC(=O)C2(O)c3ccccc3C=Cc3ccccc32)C1` (centres undefined), the figure is inactive: -3.3%; as for `C=CCN1CCN(CCOC(=O)C(O)(c2ccccc2)c2ccccc2)CC1`, inactive: -18.3%. As to `O=C(NCC1(N2CCCCC2)CCCCC1)c1cc([N+](=O)[O-])ccc1Cl`, the inhibition was inactive: -10.5%.

Consider `CC(C)N1C(=O)CC2(CCN(CCOC(=O)C(O)(c3ccccc3)c3ccccc3)CC2)C1=O`, for which the inhibition was inactive: -1.3%.

Broadly, the inhibition is the change of the read-out against control, counted positive when it falls.
